Key:
human P2X7 receptor [1] = molecular target: T1, human P2X7 receptor (Homo sapiens, UniProt Q99572); test: Ethidium bromide uptake fluorescence assay; type: cell-based
human P2X7 receptor [2] = molecular target: T1, human P2X7 receptor; test: Radioligand competition binding assay using [^3H]A804598
human P2X7 receptor [3] = molecular target: T1, human P2X7 receptor; test: Radioligand competition binding assay using [^123I]TZ6019

Chains of the proteins cited; added tags and fusions are not shown. Lines headed by an entry give the natural chain unless they say otherwise; changes in a name come on top.
UniProt Q99572: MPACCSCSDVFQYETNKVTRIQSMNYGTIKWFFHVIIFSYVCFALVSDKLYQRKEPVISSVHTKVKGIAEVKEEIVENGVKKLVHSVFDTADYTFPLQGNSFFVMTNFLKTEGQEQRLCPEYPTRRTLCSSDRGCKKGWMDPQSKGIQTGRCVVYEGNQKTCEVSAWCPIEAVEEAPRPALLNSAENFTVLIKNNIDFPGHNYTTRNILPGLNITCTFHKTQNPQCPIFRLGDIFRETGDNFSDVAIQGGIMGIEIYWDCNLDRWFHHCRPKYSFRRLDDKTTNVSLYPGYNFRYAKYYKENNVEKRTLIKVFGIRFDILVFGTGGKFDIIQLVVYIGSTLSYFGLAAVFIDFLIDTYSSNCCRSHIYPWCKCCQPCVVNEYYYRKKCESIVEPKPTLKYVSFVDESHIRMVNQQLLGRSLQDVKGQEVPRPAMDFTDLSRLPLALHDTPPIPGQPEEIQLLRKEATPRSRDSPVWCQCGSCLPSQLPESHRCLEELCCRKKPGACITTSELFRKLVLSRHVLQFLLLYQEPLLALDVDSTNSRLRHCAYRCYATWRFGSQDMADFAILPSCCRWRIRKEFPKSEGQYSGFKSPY

IC50 (human P2X7 receptor [1]): 9.93 ± 2.1 nM | IC50 (human P2X7 receptor [2]): 11.9 ± 2.2 nM | IC50 (human P2X7 receptor [3]): 8.1 ± 1.3 nM
Structure (SMILES): O=C(NCc1cccc(C(F)(F)F)c1Cl)[C@@H]1CCC(=O)N1CCF [TZ5038, (S)-N-(2-chloro-3-(trifluoromethyl)benzyl)-1-(2-fluoroethyl)-5-oxopyrrolidine-2-carboxamide]
